Source: patent US9180118B2, “Thiadiazolidinone derivatives” (University of Rochester, priority 2006, dated 2015)

System: phospho-FLT3 in CD34+CD38− AML cells
Assay: Phospho-FLT3 flow cytometry, CD34+CD38− population of primary AML
Assay type: cell-based, human
Details: 30 minutes after addition of drug

Question: For `Cn1sc(=O)n(Cc2ccccc2)c1=O` [TDZD-8, 4-benzyl-2-methyl-1,2,4-thiadiazolidine-3,5-dione], which “inhibition of FLT3 phosphorylation” value is on record?
Answer: ~30% and 29.5%

Values joined by “and” are separate entries in the source; they are usually repeats but may differ in a detail not shown here. Equal values may be shown once.
